# Source: the Kinase Knowledgebase extract (Sharma et al. 2016)
# Chains of the proteins cited; added tags and fusions are not shown. Lines headed by an entry give the natural chain unless they say otherwise; changes in a name come on top.
# UniProt P42338: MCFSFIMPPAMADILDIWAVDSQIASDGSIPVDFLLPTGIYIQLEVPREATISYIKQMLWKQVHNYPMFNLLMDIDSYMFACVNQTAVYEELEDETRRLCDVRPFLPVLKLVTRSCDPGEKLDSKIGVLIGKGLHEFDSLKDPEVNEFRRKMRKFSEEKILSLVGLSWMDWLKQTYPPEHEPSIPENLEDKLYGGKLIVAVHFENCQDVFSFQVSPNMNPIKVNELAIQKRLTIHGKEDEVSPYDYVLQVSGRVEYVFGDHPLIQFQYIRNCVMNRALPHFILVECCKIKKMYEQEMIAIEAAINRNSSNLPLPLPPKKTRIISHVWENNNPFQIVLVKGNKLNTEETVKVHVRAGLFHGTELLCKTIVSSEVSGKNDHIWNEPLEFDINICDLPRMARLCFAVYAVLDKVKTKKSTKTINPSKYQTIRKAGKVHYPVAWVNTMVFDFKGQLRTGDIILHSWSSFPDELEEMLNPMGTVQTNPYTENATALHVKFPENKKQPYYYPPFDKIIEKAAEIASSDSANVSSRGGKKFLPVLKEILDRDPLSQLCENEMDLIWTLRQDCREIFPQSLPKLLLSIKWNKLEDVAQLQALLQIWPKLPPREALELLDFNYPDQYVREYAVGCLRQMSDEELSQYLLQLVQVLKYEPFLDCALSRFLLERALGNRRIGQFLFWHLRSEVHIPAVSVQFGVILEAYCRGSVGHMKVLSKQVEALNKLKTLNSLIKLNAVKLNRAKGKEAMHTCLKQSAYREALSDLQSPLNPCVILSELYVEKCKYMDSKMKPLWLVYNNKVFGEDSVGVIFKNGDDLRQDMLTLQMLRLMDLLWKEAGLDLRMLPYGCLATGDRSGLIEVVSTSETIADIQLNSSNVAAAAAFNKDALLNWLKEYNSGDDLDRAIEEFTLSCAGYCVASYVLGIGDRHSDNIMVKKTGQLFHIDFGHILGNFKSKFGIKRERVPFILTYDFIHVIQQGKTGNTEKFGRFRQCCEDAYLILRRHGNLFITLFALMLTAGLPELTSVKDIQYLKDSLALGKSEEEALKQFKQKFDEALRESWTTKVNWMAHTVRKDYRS
# Biological target: PIK3CB (Human) (UniProt P42338)
# Assay: Assessment of PIK3CB Kinase Activity
structure (smiles),measurement,value
COc1c(OCC(O)CN2CCOCC2)ccc2c1N=C(NC(=O)c1cccnc1)N1CCN=C21 (stereo unspecified),IC50,< 10 nM
